Source: patent US10408836B2 (priority 2013, dated 2019)

Target: Recombinant N1 protein A/California/04/09 (N1pdm/09-R) (Influenza A virus (H1N1), UniProt C3W5S3)

With `CC(=O)N[C@H]1[C@H]([C@H](O)[C@H](O)CO)OC(C(=O)O)=C[C@@H]1N=C(N)N` [Zan, Zanamivir] the IC50 was 3.7 nM.
